Experiments:
Experiment in all cases: biochemical
B*5401 = B*5401 (Homo sapiens, UniProt P01889, A329T/C349S/D138N/D201E/E176V/E187T/E204Q/E69G/I76V/K202T/L119W/R155S/R180L/S121T/S35A/S48A/V127L/V306I/V36M/Y140L)
DRB1*1201 = DRB1*1201 (Homo sapiens, UniProt P01903+P01911, A100R/A169T/D57E/D86V/F55L/H45Y/K41T/L162R/M171V/P40S/Q125H/Q178H/Q39Y/Q99D/R42G/S66L/T262R/V114A/V67L/W38E/Y59H/Y61H/Y89S)
DRB1*0405 = DRB1*0405 (Homo sapiens, UniProt P01903+P01911, A100R/A169T/D86S/F76Y/I96L/K127E/L162R/M171V/N62H/P40V/Q125Y/R42H/S133A/S149N/S66Y/V115G/V209L/W38E); type: binding
DRB1*0901 = DRB1*0901 (Homo sapiens, UniProt P01903+P01911, A100R/A103E/D57H/D86V/F55Y/F60I/F76Y/I96F/K127E/L162R/M171V/P40D/Q125H/Q99R/R33Q/R42F/S133A/S66N/T210M/V115G/W38K/Y107V/Y59G/Y89S)
DRB1*1501 = DRB1*1501 (Homo sapiens, UniProt P01903+P01911)
A*2601 = A*2601 (Homo sapiens, UniProt P04439, A114D/A173T/A270S/D101N/D185E/E277Q/E87N/F33Y/G231S/I121R/I218V/K168Q/L180W/L300P/L318F/P208A/P217A/Q86R/Q94H/R138Q/S129P/T187R/T323A/T345S/V100A/V358M); type: binding
A*2902 = A*2902 (Homo sapiens, UniProt P04439, A270S/D101N/D185E/E176V/E277Q/E87Q/F33T/G231S/H175R/I121M/I218V/I322F/K168Q/L300P/L318F/M331R/P208A/P217A/Q86L/T323A/T345S/V100A/V358M); type: binding
HLA-A1 (A*0101) = HLA-A1 (A*0101) (Homo sapiens, UniProt P04439, A114D/A174V/A182V/D101N/D185E/E176A/E190D/L180R/Q94H/R68K/S129P/T187R/V100A/V91M/W191G)
A*3002 = A*3002 (Homo sapiens, UniProt P04439, D101N/D140H/D185E/E176R/F33S/G80R/H175R/K168Q/Q94H/R138E/R41S/V100E); type: binding

## CC[C@H](C)[C@H](NC(=O)[C@H](CO)NC(=O)[C@H](Cc1ccccc1)NC(=O)[C@H](CCSC)NC(=O)[C@H](CS)NC(=O)CNC(=O)[C@@H]1CCCN1C(=O)[C@@H](N)CC(C)C)C(=O)N[C@@H](Cc1ccccc1)C(=O)O
B*5401
  IC50: 2780 nM

## CSCC[C@H](NC(=O)CNC(=O)[C@@H]1CCCN1C(=O)[C@H](CCCCN)NC(=O)[C@H](CC(C)C)NC(=O)[C@H](CCCCN)NC(=O)[C@@H](NC(=O)[C@@H]1CCCN1C(=O)[C@@H](N)C(C)C)C(C)C)C(=O)O [15.074]
B*5401
  IC50: 1660 nM

## CC(C)C[C@H](NC(=O)[C@@H]1CCCN1C(=O)[C@@H](NC(=O)[C@@H](NC(=O)[C@@H]1CCCN1C(=O)[C@@H](N)CC(=O)O)[C@@H](C)O)[C@@H](C)O)C(=O)N[C@@H](C)C(=O)N[C@@H](CCCNC(=N)N)C(=O)N[C@@H](C)C(=O)O [16.011]
B*5401
  IC50: 800 nM

## CC[C@H](C)[C@H](NC(=O)CNC(=O)[C@H](Cc1ccc(O)cc1)NC(=O)[C@H](CC(C)C)NC(=O)[C@H](CO)NC(=O)[C@H](CC(C)C)NC(=O)[C@H](CC(C)C)NC(=O)[C@H](CO)NC(=O)[C@H](CC(C)C)NC(=O)[C@H](CCC(=O)O)NC(=O)[C@H](CO)NC(=O)[C@H](CC(C)C)NC(=O)[C@H](CCC(=O)O)NC(=O)[C@H](CCCNC(=N)N)NC(=O)[C@@H](N)CC(C)C)C(=O)O [Peptide 68.0043]
DRB1*1201
  IC50: 1170 nM

## CSCC[C@H](NC(=O)CNC(=O)CNC(=O)[C@H](CCCNC(=N)N)NC(=O)[C@@H](NC(=O)[C@H](CCC(N)=O)NC(=O)[C@H](C)NC(=O)[C@@H](NC(=O)[C@@H](NC(=O)[C@H](CC(C)C)NC(=O)[C@H](Cc1c[nH]cn1)NC(=O)[C@H](Cc1ccc(O)cc1)NC(=O)[C@@H](N)CCCCN)[C@@H](C)O)C(C)C)C(C)C)C(=O)N[C@H](C(=O)N[C@@H](Cc1ccccc1)C(=O)O)C(C)C [Peptide 68.0120]
DRB1*1201
  IC50: 6380 nM

## CSCC[C@H](NC(=O)[C@H](CC(=O)O)NC(=O)[C@H](CC(N)=O)NC(=O)[C@H](CO)NC(=O)[C@H](CC(C)C)NC(=O)[C@H](CC(C)C)NC(=O)[C@H](Cc1c[nH]cn1)NC(=O)[C@@H](N)CC(C)C)C(=O)N[C@@H](CS)C(=O)N[C@@H](C)C(=O)N[C@@H](CCCNC(=N)N)C(=O)N[C@@H](C)C(=O)N[C@@H](Cc1ccc(O)cc1)C(=O)N[C@@H](CO)C(=O)N[C@@H](CCC(=O)O)C(=O)O [Peptide 68.0140]
DRB1*1201
  IC50: 1150 nM

## CSCC[C@H](NC(=O)[C@H](Cc1ccccc1)NC(=O)[C@H](CCC(=O)O)NC(=O)[C@@H](NC(=O)CNC(=O)[C@H](CCC(N)=O)NC(=O)[C@H](Cc1ccc(O)cc1)NC(=O)[C@H](CCCNC(=N)N)NC(=O)[C@H](CC(C)C)NC(=O)[C@H](Cc1ccccc1)NC(=O)[C@H](CCSC)NC(=O)[C@@H](N)C(C)C)C(C)C)C(=O)N[C@@H](CO)C(=O)N[C@@H](Cc1ccccc1)C(=O)N[C@@H](CC(C)C)C(=O)O [Peptide 89.0014]
DRB1*1201
  IC50: 1320 nM

## CC[C@H](C)[C@H](NC(=O)[C@H](CS)NC(=O)[C@@H](N)CC(N)=O)C(=O)N[C@@H](CC(C)C)C(=O)N[C@@H](CC(C)C)C(=O)N[C@@H](Cc1ccc(O)cc1)C(=O)NCC(=O)N[C@@H](C)C(=O)N[C@@H](C)C(=O)N[C@@H](CC(N)=O)C(=O)N[C@H](C(=O)NCC(=O)N[C@@H](CCCCN)C(=O)N[C@@H](CO)C(=O)N[C@@H](CC(C)C)C(=O)O)[C@@H](C)O [Peptide 89.0017]
DRB1*0405
  IC50: 4060 nM
DRB1*0901
  IC50: 1170 nM

## CC[C@H](C)[C@H](N)C(=O)N[C@@H](CCC(=O)O)C(=O)N[C@@H](Cc1ccccc1)C(=O)N[C@H](C(=O)N[C@H](C(=O)N[C@@H](Cc1ccccc1)C(=O)N[C@@H](CC(C)C)C(=O)NCC(=O)N[C@@H](C)C(=O)N[C@@H](CC(C)C)C(=O)N[C@@H](CCCCN)C(=O)N[C@@H](CO)C(=O)N[C@@H](Cc1ccccc1)C(=O)N[C@@H](CC(C)C)C(=O)N[C@@H](CCCCN)C(=O)O)[C@@H](C)O)[C@@H](C)CC [Peptide 89.0033]
DRB1*0901
  IC50: 15200 nM

## CC[C@H](C)[C@H](NC(=O)[C@H](Cc1c[nH]cn1)NC(=O)[C@H](C)NC(=O)[C@H](Cc1ccc(O)cc1)NC(=O)[C@H](CC(C)C)NC(=O)[C@@H](NC(=O)[C@H](C)NC(=O)[C@@H]1CCCN1C(=O)[C@H](CCCCN)NC(=O)[C@@H](NC(=O)[C@H](CC(C)C)NC(=O)[C@@H](NC(=O)[C@@H](N)CCCCN)[C@@H](C)O)[C@@H](C)CC)[C@@H](C)O)C(=O)N[C@@H](CCC(N)=O)C(=O)N[C@@H](CS)C(=O)O [Peptide 89.0083]
DRB1*0901
  IC50: 1170 nM

## CC[C@H](C)[C@H](NC(=O)[C@H](CC(C)C)NC(=O)[C@H](CC(C)C)NC(=O)[C@H](CC(C)C)NC(=O)[C@@H](NC(=O)[C@H](CC(C)C)NC(=O)[C@@H](NC(=O)CNC(=O)[C@H](CCCNC(=N)N)NC(=O)[C@@H](N)CC(=O)O)C(C)C)[C@@H](C)CC)C(=O)N[C@@H](CCCNC(=N)N)C(=O)N[C@@H](Cc1ccccc1)C(=O)N[C@@H](CCCCN)C(=O)N[C@@H](CS)C(=O)NCC(=O)O [Peptide 89.0099]
DRB1*1501
  IC50: 426 nM
DRB1*0901
  IC50: 14200 nM

## CC[C@H](C)[C@H](NC(=O)[C@@H](NC(=O)[C@H](CCC(N)=O)NC(=O)[C@H](Cc1ccccc1)NC(=O)[C@H](C)N)C(C)C)C(=O)N[C@@H](CCC(=O)O)C(=O)N[C@@H](CC(C)C)C(=O)N[C@@H](CCC(N)=O)C(=O)N[C@@H](CCSC)C(=O)N[C@@H](C)C(=O)N[C@@H](CC(C)C)C(=O)N[C@@H](CCC(=O)O)C(=O)N[C@H](C(=O)N[C@@H](CC(C)C)C(=O)N[C@@H](CO)C(=O)O)[C@@H](C)O [Peptide 89.0181]
DRB1*0901
  IC50: 257 nM

## CC[C@H](C)[C@H](NC(=O)[C@H](CCSC)NC(=O)[C@H](CCSC)NC(=O)[C@H](CS)NC(=O)[C@H](CCSC)NC(=O)[C@@H]1CCCN1)C(=O)N[C@@H](CCC(=O)O)C(=O)N1CCC[C@H]1C(=O)N1CCC[C@H]1C(=O)N[C@@H](CCCCN)C(=O)N[C@@H](CC(C)C)C(=O)N[C@@H](CCCNC(=N)N)C(=O)N[C@@H](CO)C(=O)N[C@H](C(=O)N[C@@H](C)C(=O)O)[C@@H](C)O [Peptide 90.0034]
DRB1*1201
  IC50: 1320 nM

## CC[C@H](C)[C@H](NC(=O)[C@H](CC(=O)O)NC(=O)[C@H](CO)NC(=O)[C@@H](N)CC(C)C)C(=O)N[C@@H](CO)C(=O)N[C@@H](CCC(=O)O)C(=O)N[C@@H](Cc1ccc(O)cc1)C(=O)N[C@@H](CCCNC(=N)N)C(=O)N[C@@H](Cc1c[nH]cn1)C(=O)N[C@@H](Cc1ccc(O)cc1)C(=O)O [Peptide 1549.45]
A*2601
  IC50: 2540 nM

## CC[C@H](C)[C@H](N)C(=O)N[C@H](C(=O)N[C@H](C(=O)N[C@@H](CC(N)=O)C(=O)N[C@@H](CC(N)=O)C(=O)N[C@@H](CO)C(=O)NCC(=O)N[C@@H](CO)C(=O)N[C@@H](Cc1ccc(O)cc1)C(=O)O)C(C)C)[C@@H](C)O [Peptide 1553.02]
A*2601
  IC50: 24 nM
A*2902
  IC50: 1850 nM
HLA-A1 (A*0101)
  IC50: 2360 nM
A*3002
  IC50: 20 nM

## CC(C)[C@H](N)C(=O)N[C@H](C(=O)N[C@@H](CCCNC(=N)N)C(=O)N[C@@H](CC(N)=O)C(=O)N[C@@H](CC(=O)O)C(=O)N[C@H](C(=O)NCC(=O)N1CCC[C@H]1C(=O)N[C@@H](Cc1ccc(O)cc1)C(=O)O)C(C)C)[C@@H](C)O [Peptide 1610.05]
A*2601
  IC50: 4880 nM
A*2902
  IC50: > 20000 nM
A*3002
  IC50: 20 nM

## C[C@H](NC(=O)[C@H](CCC(N)=O)NC(=O)[C@@H](N)CCC(N)=O)C(=O)N[C@H](C(=O)N1CCC[C@H]1C(=O)NCC(=O)N1CCC[C@H]1C(=O)N[C@@H](C)C(=O)N[C@@H](Cc1ccc(O)cc1)C(=O)O)[C@@H](C)O [Peptide 1610.06]
A*2601
  IC50: 1320 nM
A*2902
  IC50: 310 nM
HLA-A1 (A*0101)
  IC50: 3430 nM
A*3002
  IC50: 13 nM

## CC[C@H](C)[C@H](NC(=O)[C@H](CCC(=O)O)NC(=O)[C@H](CCC(=O)O)NC(=O)[C@H](CC(C)C)NC(=O)[C@@H](NC(=O)[C@H](CCC(=O)O)NC(=O)[C@@H](NC(=O)[C@@H](N)C(C)C)[C@@H](C)O)[C@@H](C)O)C(=O)N[C@H](C(=O)NCC(=O)N[C@@H](Cc1ccc(O)cc1)C(=O)O)[C@@H](C)O [Peptide 9012.0178]
A*2601
  IC50: 3510 nM

Source: patent US9340577B2, “HLA binding motifs and peptides and their uses” (priority 1992, dated 2016)
